In the series the target is T1, peptide 23, Dap-substituted pyrene derivative at Y+3 (not fully specified).
T1 chain: EEEIYGEXEA

B1: Lck (protein)
chain: MGCGCSSHPEDDWMENIDVCENCHYPIVPLDGKGTLLIRNGSEVRDPLVTYEGSNPPASPLQDNLVIALHSYEPSHDGDLGFEKGEQLRILEQSGEWWKAQSLTTGQEGFIPFNFVAKANSLEPEPWFFKNLSRKDAERQLLAPGNTHGSFLIRESESTAGSFSLSVRDFDQNQGEVVKHYKIRNLDNGGFYISPRITFPGLHELVRHYTNASDGLCTRLSRPCQTQKPQKPWWEDEWEVPRETLKLVERLGAGQFGEVWMGYYNGHTKVAVKSLKQGSMSPDAFLAEANLMKQLQHQRLVRLYAVVTQEPIYIITEYMENGSLVDFLKTPSGIKLTINKLLDMAAQIAEGMAFIEERNYIHRDLRAANILVSDTLSCKIADFGLARLIEDNEYTAREGAKFPIKWTAPEAINYGTFTIKSDVWSFGILLTEIVTHGRIPYPGMTNPEVIQNLERGYRMVRPDNCPEELYQLMRLCWKERPEDRPTFDYLRSVLEDFFTATEGQYQPQP
Take B1: the Km (in general, the substrate concentration at which the rate is half of its maximum) came to 96 µM and the Vmax (commonly the top rate of the reaction or transport when substrate is in excess) was 1.5 µmol/min/mg.

Source of the values: patent US20060211075.
